{"sequences": {"note": "Amino acid sequences for entries named in this document (tags omitted). Residues count along the entry.", "UniProt P22002, whole entry": "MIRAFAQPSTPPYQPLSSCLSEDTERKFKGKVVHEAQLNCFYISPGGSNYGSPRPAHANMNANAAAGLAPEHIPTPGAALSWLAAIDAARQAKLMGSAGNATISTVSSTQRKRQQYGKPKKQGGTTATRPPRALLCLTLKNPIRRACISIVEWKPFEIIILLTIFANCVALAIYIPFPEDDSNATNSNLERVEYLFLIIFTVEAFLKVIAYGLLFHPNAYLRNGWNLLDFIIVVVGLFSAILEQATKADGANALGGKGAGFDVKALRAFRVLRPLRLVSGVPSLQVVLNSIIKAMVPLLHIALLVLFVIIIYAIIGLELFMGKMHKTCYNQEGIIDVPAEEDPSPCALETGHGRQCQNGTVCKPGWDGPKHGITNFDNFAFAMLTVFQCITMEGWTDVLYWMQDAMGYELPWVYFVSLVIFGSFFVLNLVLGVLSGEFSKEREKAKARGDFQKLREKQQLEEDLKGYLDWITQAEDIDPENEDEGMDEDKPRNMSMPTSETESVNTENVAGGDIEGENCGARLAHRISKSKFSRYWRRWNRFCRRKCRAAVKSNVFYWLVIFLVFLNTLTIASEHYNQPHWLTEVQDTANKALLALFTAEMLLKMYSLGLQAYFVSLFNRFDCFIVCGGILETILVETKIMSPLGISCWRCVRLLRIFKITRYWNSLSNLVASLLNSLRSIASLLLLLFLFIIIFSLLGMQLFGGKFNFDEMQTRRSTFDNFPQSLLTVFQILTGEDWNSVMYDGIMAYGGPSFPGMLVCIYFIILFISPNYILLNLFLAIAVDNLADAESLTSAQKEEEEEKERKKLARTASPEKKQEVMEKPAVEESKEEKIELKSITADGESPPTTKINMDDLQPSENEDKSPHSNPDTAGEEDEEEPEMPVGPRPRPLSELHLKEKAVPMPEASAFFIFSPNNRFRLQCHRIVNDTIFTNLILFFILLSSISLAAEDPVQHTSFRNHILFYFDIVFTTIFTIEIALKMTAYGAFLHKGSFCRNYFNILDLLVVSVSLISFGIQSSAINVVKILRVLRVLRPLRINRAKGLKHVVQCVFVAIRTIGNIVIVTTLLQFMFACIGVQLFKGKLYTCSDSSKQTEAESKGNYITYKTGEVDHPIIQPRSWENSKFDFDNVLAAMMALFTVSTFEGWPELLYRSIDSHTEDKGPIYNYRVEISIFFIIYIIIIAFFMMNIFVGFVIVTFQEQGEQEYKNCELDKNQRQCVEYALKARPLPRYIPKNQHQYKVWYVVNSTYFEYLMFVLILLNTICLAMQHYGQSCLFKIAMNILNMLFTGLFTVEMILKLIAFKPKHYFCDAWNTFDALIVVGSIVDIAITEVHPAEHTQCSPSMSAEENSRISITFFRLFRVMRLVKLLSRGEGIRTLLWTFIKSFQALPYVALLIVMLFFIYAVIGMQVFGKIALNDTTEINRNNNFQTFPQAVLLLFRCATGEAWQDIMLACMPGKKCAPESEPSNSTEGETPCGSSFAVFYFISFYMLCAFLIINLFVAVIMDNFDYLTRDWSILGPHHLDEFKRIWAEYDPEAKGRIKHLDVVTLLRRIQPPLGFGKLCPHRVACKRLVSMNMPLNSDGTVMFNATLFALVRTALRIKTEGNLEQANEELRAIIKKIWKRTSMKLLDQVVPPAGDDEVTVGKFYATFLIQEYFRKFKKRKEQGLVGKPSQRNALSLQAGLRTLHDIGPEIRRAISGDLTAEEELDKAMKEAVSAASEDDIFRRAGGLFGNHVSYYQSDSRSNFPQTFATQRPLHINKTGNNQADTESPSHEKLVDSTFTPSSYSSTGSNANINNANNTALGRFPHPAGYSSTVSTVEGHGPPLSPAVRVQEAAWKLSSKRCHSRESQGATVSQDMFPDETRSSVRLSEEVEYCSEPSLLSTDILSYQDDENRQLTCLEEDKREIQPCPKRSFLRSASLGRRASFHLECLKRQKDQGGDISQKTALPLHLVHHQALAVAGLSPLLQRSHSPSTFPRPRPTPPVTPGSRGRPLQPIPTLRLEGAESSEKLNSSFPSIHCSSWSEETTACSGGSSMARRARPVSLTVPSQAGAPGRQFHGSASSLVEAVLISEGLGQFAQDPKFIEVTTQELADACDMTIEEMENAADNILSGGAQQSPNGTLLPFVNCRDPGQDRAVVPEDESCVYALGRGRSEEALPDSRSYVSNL", "UniProt P54287, whole entry partner": "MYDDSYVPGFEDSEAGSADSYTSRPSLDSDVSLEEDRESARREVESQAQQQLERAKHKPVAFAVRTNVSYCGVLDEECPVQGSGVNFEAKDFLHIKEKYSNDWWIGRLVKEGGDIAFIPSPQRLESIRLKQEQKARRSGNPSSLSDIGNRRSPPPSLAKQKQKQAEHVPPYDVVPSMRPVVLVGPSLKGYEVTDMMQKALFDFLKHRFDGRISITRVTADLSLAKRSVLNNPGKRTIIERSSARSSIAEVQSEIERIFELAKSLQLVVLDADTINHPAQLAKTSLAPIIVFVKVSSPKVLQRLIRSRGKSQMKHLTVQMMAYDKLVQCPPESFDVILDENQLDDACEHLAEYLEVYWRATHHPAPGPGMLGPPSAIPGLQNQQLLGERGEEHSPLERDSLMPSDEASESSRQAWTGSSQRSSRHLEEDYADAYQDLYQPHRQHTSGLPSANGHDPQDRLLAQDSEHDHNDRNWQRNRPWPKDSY", "UniProt P54290, 25-1091 partner limits assumed": "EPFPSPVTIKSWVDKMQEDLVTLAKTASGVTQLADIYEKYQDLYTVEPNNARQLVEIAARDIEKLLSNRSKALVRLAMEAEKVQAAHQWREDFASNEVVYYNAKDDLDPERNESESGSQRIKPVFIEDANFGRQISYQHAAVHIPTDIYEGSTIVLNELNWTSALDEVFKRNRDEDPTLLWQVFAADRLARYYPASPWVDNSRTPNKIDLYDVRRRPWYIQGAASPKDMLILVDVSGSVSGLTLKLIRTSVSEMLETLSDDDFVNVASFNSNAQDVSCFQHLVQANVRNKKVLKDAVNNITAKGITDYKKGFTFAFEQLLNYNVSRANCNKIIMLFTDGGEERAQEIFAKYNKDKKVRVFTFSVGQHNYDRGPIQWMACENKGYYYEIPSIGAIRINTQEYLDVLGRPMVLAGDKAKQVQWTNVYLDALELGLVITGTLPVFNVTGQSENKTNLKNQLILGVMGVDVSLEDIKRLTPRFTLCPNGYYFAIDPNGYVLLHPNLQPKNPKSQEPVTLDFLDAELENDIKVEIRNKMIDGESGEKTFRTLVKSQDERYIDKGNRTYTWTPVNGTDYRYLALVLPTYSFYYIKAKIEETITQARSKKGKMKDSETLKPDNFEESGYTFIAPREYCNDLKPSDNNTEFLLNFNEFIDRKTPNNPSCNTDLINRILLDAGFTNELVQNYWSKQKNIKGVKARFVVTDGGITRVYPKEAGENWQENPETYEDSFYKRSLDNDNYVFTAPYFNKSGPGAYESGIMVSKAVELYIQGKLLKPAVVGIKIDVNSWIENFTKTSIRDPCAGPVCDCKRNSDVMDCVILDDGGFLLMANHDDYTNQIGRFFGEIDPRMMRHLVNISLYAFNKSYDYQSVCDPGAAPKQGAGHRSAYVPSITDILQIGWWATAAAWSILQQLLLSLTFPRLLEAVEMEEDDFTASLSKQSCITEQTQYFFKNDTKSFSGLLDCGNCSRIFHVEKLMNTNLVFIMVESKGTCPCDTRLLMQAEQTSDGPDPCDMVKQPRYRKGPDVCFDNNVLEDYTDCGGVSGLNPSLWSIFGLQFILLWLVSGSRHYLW"}, "source": "patent US7247645B2", "about": "“Dihydropyridine derivatives” (Ajinomoto Co., Inc., priority 1999, dated 2007)", "origin": "cited, not measured here", "molecular_target": "L-type calcium channel (Rattus norvegicus, UniProt P22002)", "conditions": "read-out: antagonistic effect on L-type calcium channels IC50; comparison compound of WO 9849144; cited from earlier work", "data": [{"molecule": "COc1cccc(C2C(C(=O)O)=C(C)NC(C)=C2C(=O)OCC=Cc2ccccc2)c1", "note": "(stereo not shown)", "values": [{"measurement": "IC50", "value": 250, "unit": "nM"}]}]}
